Literature values, collected in article PMC11437215 (Nature Communications, 2024).

System: IIT-3, 8F10 and Ins1C-specific T cells
Conditions: cited from earlier work

CCN(CC)CCCC(C)Nc1ccnc2cc(Cl)ccc12 (stereo not shown) [Chloroquine, chloroquine]
capacity of APCs to present already-processed extracellular insulin peptides: did not influence
